Measurements reported in patent US20180207228A1, “PEPTIDE COMBINATIONS AND USES THEREOF FOR TREATING GRASS ALLERGY” (ALK-Abelló A/S, priority 2015, published 2018).

Key:
Type in all cases: cell-based, human
[1] = test system: allergen specific T cells; assay: T cell proliferation assay (72 h) on donor derived T cell lines (TCL02/TCL03); conditions: for Proliferation % donor coverage (TCL-02 DK1): T cell lines TCL-02 DK1, 30 donors, hit criteria SI>=2, CPM>=1000; for Proliferation strength (TCL-02 DK1): T cell lines TCL-02 DK1, strength of response (average relative magnitude); for donor coverage, proliferation: modified and parent peptides 2 μg/ml
[2] = test system: release of IFN-γ upon T cell activation; assay: Fluorospot assay, IFN-γ release (DK1-TCL01, US1-TCL01); conditions: head prints TCL-02 DK1; 17 TCL-01 DK1 lines
[3] = test system: release of IL-5 upon T cell activation; assay: Fluorospot assay, IL-5 release (DK1-TCL01, US1-TCL01); conditions: head prints TCL-02 DK1; text: 25 TCL-01 DK1 lines
[4] = test system: grass allergic donor derived T cell lines (TCL-02 DK-2); assay: Cross-reactivity of homologue peptides, proliferation on TCL02-DK2 (Study XR1); conditions: 2 μg/ml, TCL02-DK2, 21 donors

| SMILES | Proliferation % donor coverage (TCL-02 DK1) [1] | IFN-gamma % donor coverage (TCL-02 DK1) [2] | Proliferation strength (TCL-02 DK1) [1] | IL-5-Fluorospotr % donor coverage (TCL-02 DK1) [3] | experimental cross-reactivity [4] | donor coverage, proliferation ([1]; TCL03-DK1 and DK2, 27 donors) | T cell coverage of modified peptide compared to the parent peptide ([1]; 2 μg/ml, TCL03-DK1 and DK2, 27 donors) |
| --- | --- | --- | --- | --- | --- | --- | --- |
| CC[C@H](C)[C@H](NC(=O)CNC(=O)[C@@H](N)CO)C(=O)N[C@@H](C)C(=O)N[C@@H](Cc1ccccc1)C(=O)NCC(=O)N[C@@H](CO)C(=O)N[C@@H](CCSC)C(=O)N[C@@H](C)C(=O)N[C@@H](CCCCN)C(=O)N[C@@H](CCCCN)C(=O)NCC(=O)N[C@@H](CC(=O)O)C(=O)N[C@@H](CCC(=O)O)C(=O)N[C@@H](CCC(N)=O)C(=O)O [compound 117] | 31.03% | – | – | – | – | – | – |
| CC[C@H](C)[C@H](NC(=O)[C@@H](NC(=O)[C@H](CCC(N)=O)NC(=O)[C@H](CC(C)C)NC(=O)[C@H](CCC(=O)O)NC(=O)CNC(=O)[C@H](C)NC(=O)[C@@H]1CCCN1C(=O)[C@@H](NC(=O)[C@@H](N)C(C)C)[C@@H](C)CC)C(C)C)C(=O)N[C@@H](CCC(=O)O)C(=O)N[C@@H](CCCCN)C(=O)N[C@H](C(=O)N[C@@H](CC(=O)O)C(=O)N[C@@H](C)C(=O)N[C@@H](C)C(=O)N[C@@H](Cc1ccccc1)C(=O)N[C@@H](CCCCN)C(=O)N[C@H](C(=O)N[C@@H](C)C(=O)O)C(C)C)C(C)C [compound 82] | 20.00% | 0.00% | 2.60 | 4.00% | – | – | – |
| CSCC[C@H](NC(=O)CNC(=O)[C@H](CCCCN)NC(=O)[C@H](CCC(=O)O)NC(=O)[C@@H](NC(=O)[C@H](CC(C)C)NC(=O)[C@H](Cc1ccccc1)NC(=O)[C@H](CCCNC(=N)N)NC(=O)[C@H](Cc1ccccc1)NC(=O)[C@H](CC(N)=O)NC(=O)[C@H](Cc1ccccc1)NC(=O)[C@@H]1CCCN1C(=O)CNC(=O)[C@H](CCC(N)=O)NC(=O)[C@H](CC(C)C)NC(=O)[C@@H]1CCCN1C(=O)[C@@H](N)CCC(=O)O)[C@@H](C)O)C(=O)N[C@@H](CCCCN)C(=O)N[C@@H](CC(N)=O)C(=O)N[C@H](C(=O)O)C(C)C [peptide 216] | – | – | – | – | showed cross-reactivity | 40% | – |
| CC[C@H](C)[C@H](N)C(=O)N[C@@H](CC(N)=O)C(=O)N[C@H](C(=O)NCC(=O)N[C@@H](Cc1ccccc1)C(=O)N[C@@H](CCCCN)C(=O)N[C@@H](C)C(=O)N[C@@H](C)C(=O)N[C@H](C(=O)N[C@@H](C)C(=O)N[C@@H](C)C(=O)N[C@@H](C)C(=O)N[C@@H](C)C(=O)NCC(=O)N[C@H](C(=O)O)C(C)C)C(C)C)C(C)C [compound 114] | 56.67% | 0.00% | 11.10 | 37.50% | – | – | – |
| CSCC[C@H](NC(=O)CNC(=O)[C@H](CCCCN)NC(=O)[C@H](CCC(=O)O)NC(=O)[C@@H](NC(=O)[C@H](CC(C)C)NC(=O)[C@H](Cc1ccccc1)NC(=O)[C@H](CCCNC(=N)N)NC(=O)[C@H](Cc1ccccc1)NC(=O)[C@H](CC(N)=O)NC(=O)[C@H](Cc1ccccc1)NC(=O)[C@@H]1CCCN1C(=O)CNC(=O)[C@H](CCC(N)=O)NC(=O)[C@H](CC(C)C)NC(=O)[C@@H]1CCCN1)[C@@H](C)O)C(=O)N[C@@H](CCCCN)C(=O)N[C@@H](CC(N)=O)C(=O)N[C@H](C(=O)O)C(C)C [peptide 272] | – | – | – | – | – | 18% | Markedly reduced T cell coverage |
| CC(C)[C@H](NC(=O)[C@H](C)NC(=O)[C@H](C)NC(=O)[C@H](CCCCN)NC(=O)[C@H](Cc1ccccc1)NC(=O)CNC(=O)[C@H](C)NC(=O)[C@@H](N)CC(N)=O)C(=O)N[C@@H](C)C(=O)N[C@@H](C)C(=O)N[C@@H](C)C(=O)N[C@@H](C)C(=O)N[C@H](C(=O)N[C@H](C(=O)N1CCC[C@H]1C(=O)O)C(C)C)C(C)C [compound 124] | 46.67% | 0.00% | 9.50 | 25.00% | – | – | – |
